Article PMC3843672, “Resistance to Degradation and Cellular Distribution are Important Features for the Antitumor Activity of Gomesin” (PLoS ONE, 2013)
Where two headings read alike, the source gives them in different places.

Legend:
[1] = Resistance to degradation by lysosomal enzymes (LC/ESI-MS); assay type: in vitro ADME; conditions: 37°C
Method: The cultured cells were resuspended using pH 5 Tris buffer, and then sonicated. Protein concentration was measured using the RC DC protein assay kit (Bio-Rad, CA, USA) according to the manufacturer’s instructions. The peptides were incubated with this protein solution for 1–14 h, and its stability was evaluated by reversed-phase liquid chromatography coupled with an electrospray ionization mass spectrometer (LC/ESI-MS).
Figure 2 Lysosomal enzymes participate in the cytotoxic reduction activities of the Gm analogues. (A, C and D) Cell viability was assessed by the MTT reduction test. (A) Cells were incubated with cytoskeletal inhibitor (cytochalasin D), and lysosomal inhibitor (chloroquine) for 1 h before to stimulation by Gm, and its analogues for 24 h. Chloroquine potentiated the cytotoxicity of peptides. (B) Since chloroquine was able to potentiate the cytotoxicity of the peptides, resistance to degradation of lysosomal enzymes was evaluated by LC/ESI-MS. Peptides were incubated at 37°C for different times. (C) Cells were incubated with the IC50 concentration for each peptide. Cytotoxic activities after 24 and 72 h of the peptide incubation were compared.

[2] = test system: B16 F10 mouse melanoma cell line; assay type: cell-based; conditions: B16 cells, RPMI with 10% FBS, 24 h treatment, MTT reduction, relative to control viability (100%)
Method: B16 F10 mouse melanoma cell line was cultured in RPMI medium supplemented with 10% fetal bovine serum (FBS; Gibco, USA), 10 U/ml penicillin and 10 µg/ml streptomycin. Cells were cultured in a humidified incubator containing 2.5% CO2 at 37°C.
B16 cells were incubated in 96-well microtiter plates in RPMI medium supplemented with 10% FBS until reach the semi-confluence and then treated with different concentrations of Gm and its analogues for 24 h. To investigate the mechanisms of Gm-induced cell death, B-16 cells were also pre-incubated with 40 µM cytochalasin D (Tocris, USA); 20 µM necrostatin-1 (Tocris, USA), 10 µM Z-VAD (Tocris, USA), 5 mM MβCD (Tocris, USA), and 100 µM chloroquine (Tocris, USA) for 1 h. Cell viability was determined using the standard reduction of the tetrazolium salt 3-(4,5-dimethylthiazol-2-yl)-2,5-diphenyltetrazolium bromide (MTT). The results were expressed relative to control cell viability (100%).

B16 cells [3] = assay: Peptide internalized into cells, biotinylated peptides, flow cytometry; assay type: cell-based, mouse
Method: Cells were treated with the 2 µM biotinylated peptide. Then, the melanoma cells (5×10^5 for flow cytometry or 5×10^3 cell seeded for confocal microscopy) were labeled with streptavidin-Alexa 488 (Invitrogen, USA) for 30 min at 4°C and washed with PBS. The cells were fixed with a solution of 2% paraformaldehyde for 30 min, washed with 0.1 M glycin, and permeabilized with 0.01% saponin. Then, the cells were labeled with streptavidin-Alexa 647 (Invitrogen, USA). For flow cytometry, the cells were extracted using PBS with 5 mM EDTA previously to fixation. The quantification of label of external biotynilated peptide, and intracellular peptide were performed by flow cytometry or confocal microscopy. For flow cytometry the cells were excited using argon laser (488 nm), and diode laser (633 nm). The emission was collected in FL-1 and FL-4 channel. […] The pinhole device was adjusted to capture fluorescence of one airy unit. […]
We quantified the Gm and analogues binding to the cellular membrane, and their internalization using their biotinylated counterpart. […] External peptides labeled with streptavidin Alexa Fluor 488 were identified for the quantification of the green fluorescence (FL1 channel), and internal peptides labeled with streptavidin Alexa Fluor 647 were identified for the quantification of the deep red fluorescence (FL4 channel), after permeabilization of cellular membrane, by Flow cytometry. […]

B16 cells [4] = assay: Cell death by the annexin-V and 7-AAD assay; assay type: cell-based, mouse; conditions: 24 h, peptide at IC50, flow cytometry
Method: B16 cells (5×10^5 cells/ml) were treated with Gm and subsequently harvested, washed with PBS and resuspended in binding buffer (0.01 M HEPES, pH 7.4, 0.14 M NaCl and 2.5 mM CaCl2). The suspensions were labeled with annexin-V-APC (An) and 5 µg/ml 7-Amino-actinomycin D (7-AAD) (BD Biosciences, USA) according to the manufacturer’s instructions. After incubation at room temperature for 20 min, cells were analyzed in a FACSCalibur flow cytometer (Becton Dickinson, USA) using CellQuest, and FlowJo 7.6 software. A total of 10,000 events were collected per sample.

CC(C)C[C@@H]1NC(=O)[C@H](CCCNC(=N)N)NC(=O)[C@H](CCCNC(=N)N)NC(=O)[C@@H](NC(=O)[C@@H]2CCC(=O)N2)CSSC[C@@H](C(=O)N[C@@H](CCCNC(=N)N)C(=O)NCC(=O)N[C@@H](CCCNC(=N)N)C(N)=O)NC(=O)[C@H](Cc2ccc(O)cc2)NC(=O)[C@H]([C@@H](C)O)NC(=O)[C@H](C(C)C)NC(=O)[C@@H]2CSSC[C@H](NC1=O)C(=O)N[C@@H](Cc1ccc(O)cc1)C(=O)N[C@@H](CCCCN)C(=O)N[C@@H](CCC(N)=O)C(=O)N[C@@H](CCCNC(=N)N)C(=O)N2 [Gm, Gomesin]
resistance to lysosomal enzyme degradation (in words) ([1]; sonicated cells, pH 5 Tris buffer, different times, LC/ESI-MS (Figure 2B)): great stability to lysosomal enzymes
Peptide Degradation ([1]; sonicated cultured cells in pH 5 Tris buffer (lysosomal enzymes), incubation 1–14 h, starting peptide concentration 10^−4 M taken as 100%, LC/ESI-MS, mean ± SEM): 0±0%
IC50 [2]: ~7 µM
IC50 ([2]; listed as Gomesin): 7 µM
internal presence of peptide after 24 h (B16 cells [3]; 2 µM biotinylated peptides): internal presence
Max. Internal Fluorescence (B16 cells [3]; biotinylated peptides used, 2 µM, B16 cells, streptavidin-Alexa 647 (FL4) after fixation and saponin permeabilization, maximum over time course, mean ± SEM, three independent experiments): 603±79 AU
type of cell death (annexin-V / 7-AAD label) (B16 cells [4]): An^+7-AAD^+
